The compounds below were run against Mu opioid receptor (Homo sapiens, UniProt P35372) (assay: Affinity at the μ receptor ([35S]GTPγS binding, membranes)). Conditions: read-out: Mu Receptor Affinity calc Ki, Table 3.
With `O=C1CCc2ccccc2N1C1CCN(C2CCC3CCCCC3C2)CC1` (centres unmarked) the Ki was 0.341 µM.
`O=C1CCc2ccccc2N1C1CCN(C2CCCCCCC2)CC1` was tested, and the Ki was 0.086 µM.
`O=C1CCc2ccccc2N1C1CCN(C2CC3CCC2C3)CC1` (centres unmarked) gave a Ki of 0.957 µM.

Each compound was assayed against human opioid receptor-like receptor (ORL-1) (Homo sapiens, UniProt P41146) (assay: Nociceptin affinity at the ORL1 receptor ([35S]GTPgS binding, membranes of recombinant HEK-293 cells)). Conditions: read-out: Nociceptin Affinity calc Ki; Table 1; ORL-1 membranes from recombinant HEK-293 cells; benzothiadiazole/benzothiadiazine series.
`CC(C)C1CCC(N2CCC(N3c4ccccc4CN(CCNS(C)(=O)=O)S3(=O)=O)CC2)CC1` (centres unmarked) gave a Ki of 0.005 µM.
Compound `CC(C)C1CCC(N2CCC(N3c4ccccc4NS3(=O)=O)CC2)CC1` (centres unmarked) has a Ki of 0.357 µM.
Work on `COC(=O)CN1Cc2ccccc2N(C2CCN(C3CCC(C(C)C)CC3)CC2)S1(=O)=O` (centres unmarked) yielded a Ki of 0.041 µM.
`O=S1(=O)Nc2ccccc2N1C1CCN(C2CCC3CCCCC3C2)CC1` (centres unmarked) was tested, and the Ki was 0.225 µM.
`CCCCOC(=O)CN1Cc2ccccc2N(C2CCN(C3CCC(C(C)C)CC3)CC2)S1(=O)=O` (centres unmarked) was tested, and the Ki was 0.063 µM.
`CCCCN1Cc2ccccc2N(C2CCN(C3CCC(C(C)C)CC3)CC2)S1(=O)=O` (centres unmarked) was tested, and the Ki was 0.018 µM.
In the case of `O=S1(=O)Nc2ccccc2N1C1CCN(CC2CCCCCCC2)CC1`, the Ki is reported as 0.049 µM.
In the case of `CC(C)C1CCC(N2CCC(N3c4ccccc4CN(CCO)S3(=O)=O)CC2)CC1` (centres unmarked), the Ki is reported as 0.0074 µM.

Same assay, conditions: read-out: Nociceptin Affinity calc Ki; Table 2; ORL-1 membranes from recombinant HEK-293 cells; quinolin-2-one series
`O=C1CCc2ccccc2N1C1CCN(CCC(c2ccccc2)c2ccccc2)CC1` gave a Ki of 0.071 µM.
In the case of `O=C1CCc2ccccc2N1C1CCN(Cc2ccc3ccccc3c2)CC1`, the Ki is reported as 3.39 µM.
Work on `O=C1CCc2ccccc2N1C1CCN(C2c3ccccc3CCc3ccccc32)CC1` yielded a Ki of 0.095 µM.
`O=C1CCc2ccccc2N1C1CCN(C2CCc3ccccc3C2)CC1` (centres unmarked) showed a Ki of 0.176 µM.
`O=C1CCc2ccccc2N1C1CCN(Cc2ccc(OCc3ccccc3)cc2)CC1` showed a Ki of 3.5 µM.
`O=C1CCc2ccccc2N1C1CCN(C2CCC3CCCCC3C2)CC1` (centres unmarked) gave a Ki of 0.105 µM.
In the case of `CCCC1CCC(N2CCC(N3C(=O)CCc4ccccc43)CC2)CC1` (centres unmarked), the Ki is reported as 1.26 µM.
With `O=C1CCc2ccccc2N1C1CCN(C2CCCCCCC2)CC1` the Ki was 0.014 µM.
`O=C1CCc2ccccc2N1C1CCN(C2CC3CCC2C3)CC1` (centres unmarked) was tested, and the Ki was 0.781 µM.
Compound `O=C1CCc2ccccc2N1C1CCN(CCCC(c2ccc(F)cc2)c2ccc(F)cc2)CC1` has a Ki of 2.9 µM.
For `O=C1CCc2ccccc2N1C1CCN(C2Cc3ccccc3C2)CC1`, the Ki was 0.071 µM.
`O=C1CCc2ccccc2N1C1CCN(Cc2ccc(-c3ccccc3)cc2)CC1` gave a Ki of over 10 µM.
